For assay [1], the target named is T1, μ opioid receptor (Homo sapiens, UniProt P35372). The experiment in a line: Cellular cAMP HTRF assay, antagonism of DAMGO at human μ opioid receptor expressed on CHO cells. Conditions: read-out: IC50 for antagonizing the action of DAMGO (cAMP); 30 nM DAMGO; human μ opioid receptor on Chinese hamster ovary cells; cAMP by HTRF.
The target in assay [2] is T1, μ opioid receptor. The experiment in a line: μ opioid receptor binding (methods of Wang et al. 1994). Conditions: read-out: IC50 of binding to the μ opioid receptor; N-MDPN prepared as described in Example 1.

The chains behind the UniProt entries cited, without tags or fusion partners.
UniProt P35372, whole entry: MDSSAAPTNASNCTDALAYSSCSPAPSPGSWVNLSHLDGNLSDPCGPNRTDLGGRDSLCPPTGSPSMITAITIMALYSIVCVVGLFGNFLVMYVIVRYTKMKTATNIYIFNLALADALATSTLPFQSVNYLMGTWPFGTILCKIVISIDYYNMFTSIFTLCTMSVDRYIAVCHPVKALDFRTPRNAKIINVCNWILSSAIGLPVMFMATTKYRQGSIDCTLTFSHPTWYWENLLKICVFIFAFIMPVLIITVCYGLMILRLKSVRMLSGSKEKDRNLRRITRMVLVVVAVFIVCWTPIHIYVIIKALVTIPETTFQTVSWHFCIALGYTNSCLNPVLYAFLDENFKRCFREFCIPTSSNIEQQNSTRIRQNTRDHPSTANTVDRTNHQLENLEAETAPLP

We go through 1 molecule from patent US20110112129A2, “Peripheral Phenolic Opioid Antagonist” (published 2011).

Structures are written as SMILES.

With `CO[C@]12CC[C@@]3(C[C@@H]1C(C)(C)O)[C@H]1Cc4ccc(O)c5c4[C@@]3(CC[N@+]1(C)CC1CC1)[C@H]2O5`, the figures for the IC50 on μ opioid receptor [1] and on μ opioid receptor [2] were 310 nM and 4.2 nM, respectively.
